Test results taken from publication PMC6627553, “Cardiac Rhythm and Molecular Docking Studies of Ion Channel Ligands with Cardiotoxicity in Zebrafish” (Cells, 2019).

Test system: zebrafish embryos aged 72 hpf
Conditions: in vivo

Niguldipine-HCl [compound 1358]
Time interval and heart rates (bpm) versus normal boundaries: did not exceed the normal boundaries
